The record followed here is patent publication US9850293B2, “Targeting trastuzumab-resistant HER2+ breast cancer with a HER3-targeting nanoparticle” (priority 2014, dated 2017).

Data set [1] can be described thus: T1 relaxation shortening in solution. Format: physicochemical.
Data set [2] deals with human cardiosphere-derived cells (CDCs). Description: Human CDC viability. Conditions: escalating concentrations, 48 hour exposure. The method, then:
Control groups received saline or HerPBK10 at equivalent concentration to HerMn. Treatments began at ˜200 mm^3 average tumor volume. Tumor volumes were measured before (day 1), during (day 3), and after (days 8, 15, and 22) injections of reagents. N=8-10 tumors/group. *p<0.05 (one-way ANOVA). […] N=3 per conc, from 3 separate experiments.
To assess translatability, the viability of human cardiosphere-derived cells (CDCs) in the presence of HerGa and/or HerMn was examined.

Consider “sulfonated manganese(III) corrole [S2Mn]”, for which the “T1 (spin-lattice) relaxation shortening in solution” value in data set [1] is on record as “significant T1 relaxation shortening”. For the same substance, the “effect on CDC viability” value in data set [2] is “no detectable effect on CDC viability”. As to sulfonated gallium(III) corrole [S2Ga], the “effect on CDC viability” value in data set [2] is “no detectable effect on CDC viability”.
